These are literature values, as cited in patent US7658916B2, “Methods of enhancing lysosomal storage disease therapy by modulation of cell surface receptor density” (Genzyme Corporation, priority 2002, dated 2010).

The test system of this data set is asialoglycoprotein receptors (ASGPR). The note with it: cited from earlier work.

Read-outs that look alike come from different tables or passages of the source.

As to “interleukin-2: cytokine that can down-regulate asialoglycoprotein receptors”, the “inhibition of binding and uptake of asialoglycoproteins” value by setting is: (after 3-6 hour treatment) 50%; (after 24 hour treatment) around 100%.
